The entries are a selection whose mix differs from that of the whole data set. Some tests of the compounds listed are not included; inactive here does not mean inactive elsewhere. Active and inactive are the calls of the source.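 Rule for the calls: active = inhibition above the mean inhibition of all tested compounds plus 3 SD (cut at about 73% in these data); inactive = the rest.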
These compounds were tested against Nuclear receptor subfamily 5 group A member 2 (Homo sapiens) (UniProt O00482) (assay: reduction of NR5A2-driven StAR reporter activity – cell-based, luminescence, HEK293T, StAR-luciferase reporter, primary screen (AID 602396;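 note: 0% = DMSO wells and 100% = reporter-only cells lacking LRH-1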)). Details: LRH-1 transfected, 24 h, at 3.6 µM, stronger effect = higher value.

Amino acid sequences for entries named in this document (tags omitted).
UniProt O00482, whole entry: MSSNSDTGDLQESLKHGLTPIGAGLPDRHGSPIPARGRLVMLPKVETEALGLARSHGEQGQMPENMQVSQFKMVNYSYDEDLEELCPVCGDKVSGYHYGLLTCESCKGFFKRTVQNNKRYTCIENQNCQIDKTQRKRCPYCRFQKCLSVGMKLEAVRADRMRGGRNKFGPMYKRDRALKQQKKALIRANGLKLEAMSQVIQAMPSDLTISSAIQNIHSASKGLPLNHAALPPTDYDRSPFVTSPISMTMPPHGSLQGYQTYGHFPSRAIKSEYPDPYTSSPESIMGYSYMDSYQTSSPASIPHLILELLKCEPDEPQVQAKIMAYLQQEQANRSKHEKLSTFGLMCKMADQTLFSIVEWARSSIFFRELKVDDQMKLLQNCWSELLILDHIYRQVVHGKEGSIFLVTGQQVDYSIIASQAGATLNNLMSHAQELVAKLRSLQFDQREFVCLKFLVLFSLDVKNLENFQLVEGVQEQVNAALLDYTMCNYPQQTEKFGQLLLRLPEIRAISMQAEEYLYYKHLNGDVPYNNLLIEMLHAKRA

SMILES	inhibition
O=C(OC1CN2CCC1CC2)C(CO)(c1ccccc1)c1ccccc1 (stereo unspecified)	inactive: 2%
O=C(OCCN1CCCC1)C(O)(c1ccccc1)c1ccccc1	inactive: 1.93%
CC(C)Oc1ccc(C(=O)NCC2(N(C)C)CCCCC2)cc1	inactive: 17.1%
CN(C)c1cccc(C(=O)NCC2(N(C)C)CCCCC2)c1	inactive: -4.76%
C=C(C)C#CC(O)(C(=O)OC1CCN(C)CC1)c1ccccc1 (stereo unspecified)	inactive: 19.9%
COc1ccc(Br)c(C(=O)NCC2(N3CCCCC3)CCCCC2)c1	inactive: -12.5%
COc1cc(C(=O)NCC2(N(C)C)CCCCC2)c([N+](=O)[O-])cc1OC	inactive: -5.79%
CN(C)C1(CNC(=O)c2ccc(Br)cc2)CCCCC1	inactive: -1.17%
O=C(NCC1(N2CCCCC2)CCCCC1)c1cccc(Cl)c1	inactive: -23.9%
COc1ccc(Cl)cc1C(=O)NCC1(N(C)C)CCCCC1	inactive: -7.51%
COc1cccc(C(=O)NCC2(N3CCCCC3)CCCCC2)c1	inactive: 0.98%
CN(C)c1ccc(C(=O)NCC2(N(C)C)CCCCC2)cc1	inactive: -0.74%
CN(C)C1CCCC1OC(=O)C(O)(c1ccccc1)c1ccccc1 (stereo unspecified)	inactive: 4.91%
Cc1ccccc1C(=O)NCC1(N2CCCCC2)CCCCC1	inactive: -5.1%
COc1ccc(C(=O)NCC2(N(C)C)CCCCC2)cc1	inactive: 7.18%
O=C(NCC1(N2CCCCC2)CCCCC1)c1cccc(Br)c1	inactive: -22.8%
CCN1CCCC(OC(=O)C2(O)c3ccccc3C=Cc3ccccc32)C1 (stereo unspecified)	inactive: 9.97%
Cc1cc(C(=O)NCC2(N3CCCCC3)CCCCC2)ccc1[N+](=O)[O-]	inactive: -28.6%
O=C(NCC1(N2CCCCC2)CCCCC1)c1cc(F)c(F)cc1Cl	inactive: 9.16%
C=CCN1CCN(CCOC(=O)C(O)(c2ccccc2)c2ccccc2)CC1	inactive: -6.83%
CN1[C@@H]2CC[C@H]1CC(OC(=O)C(O)(c1ccccc1)c1ccccc1)C2 (stereo partly specified)	inactive: -10.1%
O=C(NCC1(N2CCCCC2)CCCCC1)c1cc([N+](=O)[O-])ccc1Cl	inactive: -1.11%
Cc1ccc(C(=O)NCC2(N3CCCCC3)CCCCC2)cc1	inactive: -45.5%
COc1cc(SC)ccc1C(=O)NCC1(N(C)C)CCCCC1	inactive: 2.3%
CCN(CC)CC(C)C(C)OC(=O)C(O)(c1ccccc1)c1ccccc1 (stereo unspecified)	inactive: 5.37%
CC(C)N1C(=O)CC2(CCN(CCOC(=O)C(O)(c3ccccc3)c3ccccc3)CC2)C1=O	inactive: -6.79%
